## Ab-14 light chain CDR variants: yeast mating affinities

Source: Engelhart et al. 2022 (doi:10.1038/s41597-022-01779-4), MIT Lincoln Laboratory and A-Alpha Bio; data file from the FLAb repository.

Target peptide (SARS-CoV-2 spike, HR2 region): PDVDLGDISGINAS

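Phage display of a naive human antibody library on the peptide gave the parent. AAYL50 was designed without a model: most single CDR substitutions and a random sample of double and triple ones. The scFvs were displayed on barcoded MATa yeast, the peptide on MATalpha yeast. Binding brings cells together so that they mate, and sequencing counts the barcode pairs among the diploids. A regression on co-assayed BCL2-family reference pairs converts the normalised counts of each replicate to an apparent Kd. Mating was done three times.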

The variants keep the heavy chain, the linker and the frameworks of Ab-14 (scFv order VH, the linker GGGGSGGGGSGGGGS, VL).
VH: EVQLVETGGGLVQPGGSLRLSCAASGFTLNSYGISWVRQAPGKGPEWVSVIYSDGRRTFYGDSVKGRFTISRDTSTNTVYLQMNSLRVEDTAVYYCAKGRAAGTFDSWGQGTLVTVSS
VL: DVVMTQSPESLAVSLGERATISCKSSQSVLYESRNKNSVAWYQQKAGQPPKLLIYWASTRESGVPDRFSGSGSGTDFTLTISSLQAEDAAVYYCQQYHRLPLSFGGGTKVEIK

Variants are written as CDR1, CDR2 and CDR3 of the light chain (limits as in the source). Parent: KSSQSVLYESRNKNSVA, WASTRES, QQYHRLPLS.
This list gathers variants with a substitution at R34 (VL, numbered from residue 1).
The Kd shown is the geometric mean over detected replicates; a lower Kd is a better binder.
"nd" means that the variant was in the library but no mating with the target was seen in any replicate; the authors take this as a sign of poor binding, and no number exists.
Empty control strains, which show no peptide, gave a signal in 18% of pairings with library AAYL50; the median was 15 µM and 95% of these signals were weaker than 970 nM. No background was subtracted.

- KSSQSVLYESLNKNVVA / WASFRES / QQYHRLPLS: 8.6 µM (2 of 3 replicates)
- KSSQSVLYPSWNKNSVA / WASTNES / QQYHRLPLS: nd (0 of 3 replicates)
- KSSQSVLYNSINKNSVA / WAPTRES / QQYHRLPLS: nd (0 of 3 replicates)
- KSSQSVLYESANKNSVA / DASTRES / YQYHRLPLS: 7.0 nM (3 of 3 replicates)
- KSSQSVLYESVNANSVA / WASTRES / QQYHRLPLS: 5.3 µM (1 of 3 replicates)
- TSSQSVYYESTNKNSVA / WASTRES / QQYHRLPLS: 3.9 nM (3 of 3 replicates)
- KSSQSVLYHSYNKNSVA / WASTRES / QQYHRLPLS: 19 nM (3 of 3 replicates)
- KSSQSVLYESANKNSVA / WMSTRES / QQYHRLPLS: 38 nM (3 of 3 replicates)
- KESQSVLYESCNKNSRA / WASTRES / QQYHRLPLS: nd (0 of 3 replicates)
- KSSQSPLYESSNKNSVA / WASTRES / QQYHRLFLS: nd (0 of 3 replicates)
- KSSQVVLYESINKNSVA / WASTRES / QQYHRLPLL: 4.4 µM (3 of 3 replicates)
- KSSQSVLYESLNANSVA / WAYTRES / QQYHRLPLS: 7.2 nM (3 of 3 replicates)
- KSSQSVLYETHNKNSVA / VASTRES / QQYHRLPLS: 21 nM (3 of 3 replicates)
- KSSQPVLYESNNKNSVY / WASTRES / QQYHRLPLS: nd (0 of 3 replicates)
- KSSQSVLPEGPNKNSVA / WASTRES / QQYHRLPLS: 8.4 nM (3 of 3 replicates)
- KSSQSVTYESSNVNSVA / WASTRES / QQYHRLPLS: 2.3 nM (3 of 3 replicates)
- KSSQSVLYESENNCSVA / WASTRES / QQYHRLPLS: 27 nM (3 of 3 replicates)
- KSSQSVLYESPNKDSVA / WASTRES / QQYHRLPLS: 13 µM (2 of 3 replicates)
- KPVQSVLYESPNKNSVA / WASTRES / QQYHRLPLS: 83 nM (3 of 3 replicates)
- KSSQSYLYESENKNSWA / WASTRES / QQYHRLPLS: 1.0 µM (1 of 3 replicates)
- KSSQSVLYESMNHNSVA / WASGRES / QQYHRLPLS: nd (0 of 3 replicates)
- KSSQSVLDESANKNSVA / WASTRES / QQYHRLPLS: 3.3 nM (3 of 3 replicates)
- KSVQSVLYESANKNKVA / WASTRES / QQYHRLPLS: 2.5 µM (2 of 3 replicates)
- KSSNSVLYETINKNSVA / WASTRES / QQYHRLPLS: 16 nM (3 of 3 replicates)
- WSSQSHLYESDNKNSVA / WASTRES / QQYHRLPLS: 110 nM (3 of 3 replicates)
- KSCQSVLYESSNKNSVA / WASTRES / QQYHRLPVS: 31 µM (1 of 3 replicates)
- KSSQSVLYESNNKNSVA / WASTRES / QQYHRLPWS: nd (0 of 3 replicates)
- KSSQSVLYESFNKNSVA / WASIRES / QQYHYLPLS: 7.9 nM (3 of 3 replicates)
- KSSQSVLWESQNKNSVA / WASTREC / QQYHRLPLS: 15 nM (3 of 3 replicates)
- KSSQSVLYESLNKNDVA / WACTRES / QQYHRLPLS: nd (0 of 3 replicates)
- KSSQSVLYESYNKNSVA / WAHDRES / QQYHRLPLS: 14 nM (3 of 3 replicates)
- KSEQSVLYESANANSVA / WASTRES / QQYHRLPLS: 4.6 nM (3 of 3 replicates)
- KSTFSVLYESKNKNSVA / WASTRES / QQYHRLPLS: 14 nM (3 of 3 replicates)
- KSSQSVLYESINKNSVM / KASTRES / QQYHRLPLS: 14 µM (2 of 3 replicates)
- KSSQSVLYESQNKNSVA / WASTRES / QQYQRLYLS: 14 µM (1 of 3 replicates)
- KSSQSVLYESLNKNSVA / WASTSES / QPYHRLPLS: 39 nM (3 of 3 replicates)
- CSSQEVLYESPNKNSVA / WASTRES / QQYHRLPLS: 66 µM (1 of 3 replicates)
- KSSQSVLYESINKNSVA / WASTREQ / QQYRRLPLS: nd (0 of 3 replicates)
- KSSQSVLYESVNKNSVA / WVSTRES / QQKHRLPLS: 170 µM (3 of 3 replicates)